# According to patent publication US11505525B2, “Branched discrete PEG constructs” (Quanta BioDesign, Ltd., priority 2011, dated 2022):
# “And” between values parts separate entries of the source, which are not always exact repeats. Identical values can stand only once.
# Test: PK data in normal female athymic mice
# Source text: In a different study, PK data was taken on normal athymic mice injected with: mCC49 Fab′-dPEG12-Tris(dPEG12-Tris(m-dPEG11)3)3, mCC49 Fab′-dPEG12-Tris(dPEG24-acid)3, mCC49 Fab′-dPEG12-Tris(m-dPEG24)3, and mCC49 Fab′-dPEG12-Tris(dPEG12-acid)3.
# PK data was taken with additional normal female athymic mice as follows: […]
substance,measurement,setting,value
"mCC49 Fab′-NEM [Fab-NEM, reference compound]","PK data (percent injected dose), individual mice 1-3",0 hrs after injection,29.58 and 30.89 and 41.48
same,"PK data (percent injected dose), individual mice 1-3",0.5 hrs after injection,13.61 and 0.95 and 17.79
same,"PK data (percent injected dose), individual mice 1-3",1 hrs after injection,5.83 and 5.36 and 8.27
same,"PK data (percent injected dose), individual mice 1-3",2 hrs after injection,5.01 and 4.65 and 5.18
same,"PK data (percent injected dose), individual mice 1-3",3 hrs after injection,4.39 and 2.72 and 3.21
same,"PK data (percent injected dose), individual mice 1-3",6 hrs after injection,2.68 and 1.93 and 9.25
same,"PK data (percent injected dose), individual mice 1-3",22 hrs after injection,0.23 and 0.18 and 0.2
same,"PK data (percent injected dose), individual mice 1-3",28 hrs after injection,0.48 and 0.29 and 0.14
same,"PK data (percent injected dose), individual mice 1-3",48 hrs after injection,0.1 and 0.09 and 0.13
